What was measured:
[1] = test system: Ba/F3 cells expressing FLT3-ITD-D835V
[2] = test system: Ba/F3 cells expressing FLT3-ITD

| Structure (SMILES) | IC50 [1] [nM] | IC50 [2] [nM] |
| --- | --- | --- |
| COc1cc2nc(-c3ccc(CC(=O)Nc4cc(C5(C(F)(F)F)CC5)on4)c(F)c3)cnc2cc1OCC(C)(C)O [Example 249, 2-[2-fluoro-4-[6-(2-hydroxy-2-methyl-propoxy)-7-methoxy-quinoxalin-2-yl]phenyl]-N-[5-[1-(trifluoro-methyl)cyclopropyl]isoxazol-3-yl]acetamide] | 10 to 20 | < 10 |
| COc1cc2ncc(-c3ccc(CC(=O)Nc4cc(C5(C(F)(F)F)CC5)on4)c(F)c3)cc2cc1OCCN [Example 192, 2-[4-[6-(2-aminoethoxy)-7-methoxy-3-quinolyl]-2-fluoro-phenyl]-N-[5-[1-(trifluoromethyl)cyclo-propyl]isoxazol-3-yl]acetamide] | 10 to 20 | < 10 |
| COc1cc2ncc(-c3ccc(CC(=O)Nc4cc(C(C)(C)C(F)(F)F)on4)c(F)c3)cc2cc1OCCO [Example 178, 2-[2-fluoro-4-[6-(2-hydroxyethoxy)-7-methoxy-3-quinolyl]phenyl]-N-[5-(2,2,2-trifluoro-1,1-dimethyl-ethyl)isoxazol-3-yl]acetamide] | < 10 | < 10 |
| COc1cc2nc(-c3ccc(CC(=O)Nc4cc(C5(C(F)(F)F)CC5)on4)c(F)c3)cnc2cc1OCC(O)CO (stereo not shown) [Example 238, 2-[4-[6-(2,3-dihydroxypropoxy)-7-methoxy-quinoxalin-2-yl]-2-fluoro-phenyl]-N-[5-[1-(trifluoromethyl)cyclo-propyl]isoxazol-3-yl]acetamide] | < 10 | < 10 |
| COc1cc2ncc(-c3ccc(CC(=O)Nc4cc(C5(C(F)(F)F)CC5)on4)c(F)c3)cc2cc1OCCN1CCOCC1 [Example 190, 2-[2-fluoro-4-[7-methoxy-6-(2-morpholinoethoxy)-3-quinolyl]phenyl]-N-[5-[1-(trifluoromethyl)cyclo-propyl]isoxazol-3-yl]acetamide] | < 10 | < 10 |
| COc1cc2ncc(-c3ccc(CC(=O)Nc4cc(C5(C(F)(F)F)CC5)on4)c(F)c3)nc2cc1OCC(C)(C)O [Example 239, 2-[2-fluoro-4-[7-(2-hydroxy-2-methyl-propoxy)-6-methoxy-quinoxalin-2-yl]phenyl]-N-[5-[1-(trifluoro-methyl)cyclopropyl]isoxazol-3-yl]acetamide] | < 10 | < 10 |
| COc1cc2nc(-c3ccc(CC(=O)Nc4cc(C(C)(C)C(F)(F)F)on4)c(F)c3)cnc2cc1OCCCN1CCOCC1 [Example 209, 2-[2-fluoro-4-[7-methoxy-6-(3-morpholino-propoxy)quinoxalin-2-yl]phenyl]-N-[5-(2,2,2-trifluoro-1,1-dimethyl-ethyl)isoxazol-3-yl]acetamide] | < 10 | < 10 |
| COc1cc2nc(-c3ccc(CC(=O)Nc4cc(C5(C(F)(F)F)CC5)on4)c(F)c3)cnc2cc1CC(O)CO (stereo not shown) [Example 84, 2-(4-(6-(2,3-dihydroxypropyl)-7-methoxyquinoxalin-2-yl)-2-fluorophenyl)-N-(5-(1-(trifluoromethyl)cyclopropyl)isoxazol-3-yl)acetamide] | > 50 | < 10 |
| COc1cc2nc(-c3ccc(CC(=O)Nc4cc(C5(C(F)(F)F)CC5)on4)c(F)c3)cnc2cc1OCC(=O)N(C)C [Example 186, 2-[4-[6-[2-(dimethylamino)-2-oxo-ethoxy]-7-methoxy-quinoxalin-2-yl]-2-fluoro-phenyl]-N-[5-[1-(trifluoro-methyl)cyclopropyl]isoxazol-3-yl]acetamide] | < 10 | < 10 |
| COc1cc2ncc(-c3ccc(CC(=O)Nc4cc5n(n4)CCC5(C)C)c(F)c3)nc2cc1OC [Example 194, 2-[4-(6,7-dimethoxyquinoxalin-2-yl)-2-fluoro-phenyl]-N-(4,4-dimethyl-5,6-dihydropyrrolo[1,2-b]pyrazol-2-yl)acetamide] | < 10 | < 10 |
| COc1cc2ncc(-c3cc(F)c(CC(=O)Nc4cc(C(C)(C)C(F)(F)F)on4)c(F)c3)nc2cc1OC [Example 225, 2-[4-(6,7-dimethoxyquinoxalin-2-yl)-2,6-difluoro-phenyl]-N-[5-(2,2,2-trifluoro-1,1-dimethyl-ethyl)isoxazol-3-yl]acetamide] | 10 to 20 | < 10 |
| COc1cc2nc(-c3ccc(CC(=O)Nc4cc(C5(C(F)(F)F)CC5)on4)c(F)c3)cnc2cc1OCCN1CCO[C@@H](C)C1 [Example 248, 2-[2-fluoro-4-[7-methoxy-6-[2-[(2S)-2-methylmorpholin-4-yl]ethoxy]quinoxalin-2-yl]phenyl]-N-[5-[1-(trifluoromethyl)cyclo-propyl]isoxazol-3-yl]acetamide] | < 10 | < 10 |
| COc1cc2cc(-c3ccc(CC(=O)Nc4cc(C(C)(C)C(F)(F)F)on4)c(F)c3)cnc2cc1OCCN1CC[C@@H](O)C1 [Example 199, 2-[2-fluoro-4-[7-[2-[(3R)-3-hydroxypyrrolidin-1-yl]ethoxy]-6-methoxy-3-quinolyl]phenyl]-N-[5-(2,2,2-trifluoro-1,1-dimethyl-ethyl)isoxazol-3-yl]acetamide] | < 10 | < 10 |
| COc1cc2nc(-c3ccc(CC(=O)Nc4cc(C5(C(F)(F)F)CC5)on4)c(F)c3)cnc2cc1OCCN1CC(C)OC(C)C1 (stereo not shown) [Example 174, 2-[4-[6-[2-(2,6-dimethylmorpholin-4-yl)ethoxy]-7-methoxy-quinoxalin-2-yl]-2-fluoro-phenyl]-N-[5-[1-(trifluoro-methyl)cyclo-propyl]isoxazol-3-yl]acetamide] | < 10 | < 10 |
| COc1cc2nc(-c3ccc(CC(=O)Nc4cc(C5(C(F)(F)F)CC5)on4)c(F)c3)cnc2cc1OCC#N [Example 183, 2-[4-[6-(cyanomethoxy)-7-methoxy-quinoxalin-2-yl]-2-fluoro-phenyl]-N-[5-[1-(trifluoromethyl)cyclo-propyl]isoxazol-3-yl]acetamide] | < 10 | < 10 |

Results, then the compound that gave them:

| IC50 [1] [nM] | IC50 [2] [nM] | Structure (SMILES) |
| --- | --- | --- |
| < 10 | < 10 | COc1cc2nc(-c3ccc(CC(=O)Nc4cc(C(C)(C)C)on4)c(F)c3)cnc2cc1OCCN1CCOCC1 [Example 92, N-(5-(tert-butyl)isoxazol-3-yl)-2-(2-fluoro-4-(7-methoxy-6-(2-morpholinoethoxy)quinoxalin-2-yl)phenyl)acetamide] |
| < 10 | < 10 | COc1cc2nc(-c3ccc(CC(=O)Nc4cc(C(C)(C)C)on4)cc3)cnc2cc1OCCN1CCOCC1 [Example 215, N-(5-tert-butylisoxazol-3-yl)-2-[4-[7-methoxy-6-(2-morpholino-ethoxy)quinoxalin-2-yl]phenyl]acetamide] |
| < 10 | < 10 | CNCCOc1cc2nc(-c3ccc(CC(=O)Nc4cc(C(C)(C)C(F)(F)F)on4)c(F)c3)cnc2cc1OC [Example 196, 2-[2-fluoro-4-[6-methoxy-7-[2-(methyl-amino)ethoxy]quinoxalin-2-yl]phenyl]-N-[5-(2,2,2-trifluoro-1,1-dimethyl-ethyl)isoxazol-3-yl]acetamide] |
| < 10 | < 10 | COc1cc2ncc(-c3ccc(CC(=O)Nc4cc(C(C)(C)C(F)(F)F)on4)c(F)c3)nc2cc1O [Example 184, 2-[2-fluoro-4-(7-hydroxy-6-methoxy-quinoxalin-2-yl)phenyl]-N-[5-(2,2,2-trifluoro-1,1-dimethyl-ethyl)isoxazol-3-yl]acetamide] |
| < 10 | < 10 | COc1cc2ncc(-c3ccc(CC(=O)Nc4cc(C5(C(F)(F)F)CC5)on4)c(F)c3)nc2cc1OC[C@@H](C)O [Example 202, 2-[2-fluoro-4-[7-[(2R)-2-hydroxypropoxy]-6-methoxy-quinoxalin-2-yl]phenyl]-N-[5-[1-(trifluoromethyl)cyclo-propyl]isoxazol-3-yl]acetamide] |
| < 10 | < 10 | COc1cc2cc(-c3ccc(CC(=O)Nc4cc(C(C)(C)C(F)(F)F)on4)c(F)c3)cnc2cc1OCCN(C)CCO [Example 200, 2-[2-fluoro-4-[7-[2-[2-hydroxy-ethyl(methyl)amino]ethoxy]-6-methoxy-3-quinolyl]phenyl]-N-[5-(2,2,2-trifluoro-1,1-dimethyl-ethyl)isoxazol-3-yl]acetamide] |
| < 10 | < 10 | COc1cc2nc(-c3ccc(CC(=O)Nc4cc(C5(C(F)(F)F)CC5)on4)cc3)cnc2cc1OCCN1CCOCC1 [Example 231, 2-[4-[7-methoxy-6-(2-morpholinoethoxy)quinoxalin-2-yl]phenyl]-N-[5-[1-(trifluoromethyl)cyclo-propyl]isoxazol-3-yl]acetamide] |
| < 10 | < 10 | COc1cc2ncc(-c3ccc(CC(=O)Nc4cc(C5(C(F)(F)F)CC5)on4)c(F)c3)nc2cc1OCCN1CCOCC1 [Example 234, 2-[2-fluoro-4-[6-methoxy-7-(2-morpholino-ethoxy)quinoxalin-2-yl]phenyl]-N-[5-[1-(trifluoro-methyl)cyclopropyl]isoxazol-3-yl]acetamide] |
| < 10 | < 10 | COc1cc2nc(-c3ccc(CC(=O)Nc4cc(C(C)(C)C(F)(F)F)nn4C)c(F)c3)cnc2cc1OCCN1CCOCC1 [Example 94, 2-(2-fluoro-4-(7-methoxy-6-(2-morpholinoethoxy)quinoxalin-2-yl)phenyl)-N-(1-methyl-3-(1,1,1-trifluoro-2-methylpropan-2-yl)-1H-pyrazol-5-yl)acetamide] |
| < 10 | < 10 | COc1cc2nc(-c3ccc(CC(=O)Nc4cc(C5(C(F)(F)F)CC5)on4)c(F)c3)cnc2cc1OCCN1CCN(C)CC1 [Example 81, 2-(2-fluoro-4-(7-methoxy-6-(2-(4-methylpiperazin-1-yl)ethoxy)quinoxalin-2-yl)phenyl)-N-(5-(1-(trifluoromethyl)cyclopropyl)isoxazol-3-yl)acetamide] |
| < 10 | < 10 | COc1cc2nc(-c3ccc(CC(=O)Nc4cc(C5(C(F)(F)F)CC5)on4)c(F)c3)cnc2cc1OCCN1CCOC[C@H]1C [Example 247, 2-[2-fluoro-4-[7-methoxy-6-[2-[(3R)-3-methylmorpholin-4-yl]ethoxy]quinoxalin-2-yl]phenyl]-N-[5-[1-(trifluoromethyl)cyclo-propyl]isoxazol-3-yl]acetamide] |
